Measurements taken from US20210355223A1, “Combinations for Treating Cancer” (Pfizer Inc., priority 2018, published 2021).

System: STATS phosphorylation in lymphocytes
Assay: flow cytometry of STATS phosphorylation in lymphocytes at time points after administration in mice
Format: in vivo
Conditions: after administration to mice
Procedure: RSLAIL-2 is generally referred to as long-acting. For the purposes herein, the long acting nature of an IL-2Rβ biased agonist is typically determined using flow cytometry to measure STATS phosphorylation in lymphocytes at various time points after administration of the agonist to be evaluated in mice. As a reference, the signal is lost by around 24 hours with IL-2 but is sustained for a period greater than that for a long-acting IL-2Rβ-biased agonist.

| Substance | time by which STATS phosphorylation signal is lost | duration of STATS phosphorylation signal |
| --- | --- | --- |
| IL-2: IL-2 cytokine used as standard/reference for binding affinity and signal duration [reference compound] | around 24 hours |  |
| (2,7-(bis-methoxyPEG-carboxyamide)(9H-fluorene-9-yl)methyl N-carbamate)4-6interleukin-2 [RSLAIL-2] |  | sustained over several days |
